## Yeast mating assay B: variants of the scFv Ab-14

Reference: Li et al. 2023, doi:10.1038/s41467-023-39022-2. File: FLAb, binding data.

Target peptide (SARS-CoV-2 spike, HR2 region): PDVDLGDISGINAS

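These sequences belong to a second round, designed from the earlier measurements on random variants of the parent. Group labels follow the data file (Ctrl: baseline library sampled from a position-specific scoring matrix, with some repeated check sequences; Rand: our label for a block that the file lists under HC and that is probably the random mutants of the ten best first-round binders; GP: Gaussian process model; GPLM: also part of the Gaussian process libraries; HC: hill climbing; Gen: genetic algorithm; Gibbs: Gibbs sampling; a sequence that several methods proposed may carry one label only). Affinity was read by AlphaSeq, a pooled yeast mating assay with surface-displayed partners. Mating (16 h, 30 °C) was followed by selection of diploids and sequencing of their barcodes. Read counts were normalised to the haploid input and turned into Kd by a linear fit to BCL2-family pairs of known affinity, for each replicate. There are six technical replicates.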

The variants keep the light chain, the linker and the frameworks of Ab-14 (scFv order VH, a 15-residue (Gly4Ser)3 linker, VL).
VH: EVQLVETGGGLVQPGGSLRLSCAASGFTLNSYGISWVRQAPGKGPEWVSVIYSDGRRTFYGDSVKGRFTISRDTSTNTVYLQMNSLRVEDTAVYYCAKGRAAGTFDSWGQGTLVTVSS
VL: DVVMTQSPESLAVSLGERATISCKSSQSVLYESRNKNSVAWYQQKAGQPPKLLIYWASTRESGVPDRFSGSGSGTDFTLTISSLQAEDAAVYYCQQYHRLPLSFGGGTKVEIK

Changes read parent residue, position, new residue, counted from the first residue of the VH shown.
Variants here have at most six changes.
Each Kd is an estimate from the mating assay, the geometric mean of the replicates in which the pair was seen; lower is stronger.
An entry "nd" has no value in the source: the pair was not observed among the diploids in any replicate. This suggests poor binding but is not conclusive.
A sequence that the file lists under several names has all its replicates pooled.
In the paper, a design with two or fewer of six values counts as a poor binder.
Nonspecific signal, from three strains lacking the peptide, appeared in 1% of pairings of all heavy chain designs, centred on 120 nM (5% of these signals below 7.0 nM); values are not corrected for it. Also given: how often the same scFv was detected with the empty control strains.
The parent sequence was in this pool as ten entries: three were never detected, three once, and four in most replicates, with averages from 2.2 nM to 240 nM.
Values of this round are not directly comparable with the first-round values of the same sequences.

The variant S31E G103L [Ctrl] showed 26 nM (4 of 6 replicates; controls 0 of 18).
The variant N30L T104N [Ctrl] showed nd (0 of 6 replicates; controls 0 of 18).
The variant T28Q G61S R100H S107D [GP_HC] showed 6.4 nM (2 of 6 replicates; controls 0 of 18).
The variant G61S R100Q A101E [GPLM_Gen] showed 1.6 nM (6 of 6 replicates; controls 0 of 18).
The variant S31D A101T D106N [GPLM_HC] showed 26 nM (4 of 6 replicates; controls 0 of 18).
The variant T28N G61H A101V [GPLM_Gibbs] showed 1.4 nM (4 of 6 replicates; controls 0 of 18).
The variant T28D G61D R100A [GP_Gen] showed 1.6 nM (5 of 6 replicates; controls 0 of 18).
The variant S31E A101E S107E [GP_HC] showed nd (0 of 6 replicates; controls 0 of 18).
The variant T28E S31M G61I R100K [GP_Gibbs] showed 94 nM (6 of 6 replicates; controls 0 of 18).
The variant I34F F59M G103F [Ctrl] showed nd (0 of 6 replicates; controls 0 of 18).
The variant T28D A101V S107I [GPLM_Gibbs] showed 870 pM (6 of 6 replicates; controls 1 of 18).
The variant T28S S31D G61I A101Q [GP_Gen] showed 740 pM (6 of 6 replicates; controls 0 of 18).
The variant S31Q G61A T104Q [GPLM_HC] showed 21 nM (4 of 6 replicates; controls 0 of 18).
The variant S31E A101T S107N [GPLM_Gen] showed 1.3 nM (6 of 6 replicates; controls 0 of 18).
The variant T28S R100E S107H [GPLM_Gen] showed 750 pM (6 of 6 replicates; controls 0 of 18).
The variant F27D T28D T104W D106N [Rand] showed nd (0 of 6 replicates; controls 0 of 18).
The variant G26A T28D G61I R100N [GP_Gibbs] showed 9.7 nM (6 of 6 replicates; controls 0 of 18).
The variant G26H T28N R100K A101T [GP_Gibbs] showed 50 nM (6 of 6 replicates; controls 0 of 18).
The variant G61K R100E S107K [GP_Gibbs] showed nd (0 of 6 replicates; controls 0 of 18).
The variant T58V R100D G103L D106W [Ctrl] showed nd (0 of 6 replicates; controls 0 of 18).
The variant T28E G61A A101M [GPLM_Gen] showed 2.9 nM (6 of 6 replicates; controls 0 of 18).
The variant N30M S31E F59A [Ctrl] showed 4.2 nM (6 of 6 replicates; controls 0 of 18).
The variant S53A G61S R100Y [Ctrl] showed 810 pM (6 of 6 replicates; controls 0 of 18).
The variant T28H R100K A101I [GP_Gen] showed 100 nM (6 of 6 replicates; controls 1 of 18).
The variant T28E S31E R100K A101V [GP_Gen] showed 560 pM (6 of 6 replicates; controls 0 of 18).
The variant T28H G61A S63D R100E [GP_Gibbs] showed 1.9 nM (2 of 6 replicates; controls 0 of 18).
The variant T28S S31N A101T D106F [GP_Gibbs] showed nd (0 of 6 replicates; controls 0 of 18).
The variant F59Q G61I R100Q [GPLM_HC] showed nd (0 of 6 replicates; controls 0 of 18).
The variant S31E S53A R100G [GP_HC] showed 610 pM (6 of 6 replicates; controls 0 of 18).
The variant L29R S63N [Ctrl] showed 11 nM (6 of 6 replicates; controls 0 of 18).
The variant T28G S31E R56L A101E [Ctrl] showed 1.2 nM (6 of 6 replicates; controls 0 of 18).
The variant G26Q S53A R56I A102S G103A [Ctrl] showed nd (0 of 6 replicates; controls 0 of 18).
The variant T28Q G61A R100Q S107L [GPLM_Gen] showed 12 nM (4 of 6 replicates; controls 0 of 18).
The variant T28N G61M A101Q [GP_Gen] showed 130 nM (4 of 6 replicates; controls 1 of 18).
The variant T28D T104W F105H D106N [Rand] showed nd (0 of 6 replicates; controls 0 of 18).
The variant G26T A101E S107W [Ctrl] showed 41 nM (1 of 6 replicates; controls 0 of 18).
The variant L29V S53A A101V T104V [Ctrl] showed 16 nM (6 of 6 replicates; controls 0 of 18).
The variant S31D F59H G61K [GP_HC] showed 49 nM (2 of 6 replicates; controls 0 of 18).
The variant N30E G61D R100Q [GP_HC] showed 33 nM (3 of 6 replicates; controls 0 of 18).
The variant S31E R100Q S107F [GPLM_Gen] showed 1.9 nM (3 of 6 replicates; controls 0 of 18).
The variant T28N G61K A101Q [GPLM_Gibbs] showed 11 nM (5 of 6 replicates; controls 0 of 18).
The variant T28N S31E [Ctrl+GPLM_Gen] showed 1.8 nM (7 of 12 replicates; controls 0 of 36).
The variant T28S S31E G61R S63H A101T [GP_Gibbs] showed 34 nM (3 of 6 replicates; controls 0 of 18).
The variant N30D G61I D106T [GP_HC] showed nd (0 of 6 replicates; controls 0 of 18).
The variant N30S R56Y G99R A101E G103A T104A [Ctrl] showed nd (0 of 6 replicates; controls 0 of 18).
The variant R56K G61D R100Q A101L [GPLM_HC] showed 11 nM (6 of 6 replicates; controls 0 of 18).
The variant N30E G61A A101Q [GPLM_Gen] showed 67 nM (5 of 6 replicates; controls 1 of 18).

Extract of 6 entries:

Variant T28Q G61S R100H S107D [GP_HC] showed 6.4 nM (2 of 6 replicates; controls 0 of 18).
Variant T28N S31E [Ctrl+GPLM_Gen] showed 1.8 nM (7 of 12 replicates; controls 0 of 36).
Variant N30D G61I D106T [GP_HC] showed nd (0 of 6 replicates; controls 0 of 18).
Variant G26Q S53A R56I A102S G103A [Ctrl] showed nd (0 of 6 replicates; controls 0 of 18).
Variant T28D A101V S107I [GPLM_Gibbs] showed 870 pM (6 of 6 replicates; controls 1 of 18).
Variant S31E S53A R100G [GP_HC] showed 610 pM (6 of 6 replicates; controls 0 of 18).